Experimental data taken from publication PMC6240065 (Scientific Reports, 2018).

Molecular target: T1, VcFRK (Vibrio cholerae fructokinase) (Vibrio cholerae, UniProt A0A0H3AER7)
T1 construct: gene cscK

OCC1(O)OC[C@@H](O)[C@@H](O)[C@@H]1O (stereo partly drawn) [FRU, D-fructose]
Kd: 1.37 mM
